pIC50: −log10 of the molar value.

In this assay the target is ^3 H-Diazepam binding, rat brain cortical fragments. In words: ^3 H-Diazepam binding assay. Conditions: standard drugs, inhibition of ^3 H-Diazepam binding by 50%. As for the experimental part:
Rat brain cortical fragments are prepared and the binding procedures performed as described by Mohler and Okada (Life Sciences, 20, 2101, 1977) except that Tris buffer is substituted for Krebs buffer. Drugs are assayed in triplicate. Radioactivity is measured by liquid scintillation counting.

For `CN1C(=O)CN=C(c2ccccc2F)c2cc([N+](=O)[O-])ccc21` [Flunitrazepam, reference compound], the pIC50 was 8.74.

A word on the pIC50: it is −log10 of the IC50, conventionally taken in molar units.

The record behind these values is US4560692A, “4-Piperidino-2-phenylquinolines” (Hoffmann-La Roche Inc., priority 1984, dated 1985).
